According to patent US20210205271A1 (The Johns Hopkins University, priority 2018, published 2021):

Settings: male, CD-1, mouse, in vivo, po, 30 mg/kg

SMILES: COC(=O)Nc1nc2cc(C(=O)c3ccccc3)ccc2n1COP(=O)([O-])OCOC(=O)OC(C)C.[Na+] [Compound 12, Methyl (5-benzoyl-1-(((hydroxy(((isopropoxycarbonyl)oxy)methoxy)phosphoryl)oxy)methyl)-1H-benzo[d]imidazol-2-yl)carbamate, sodium salt]
- B/P (brain to plasma ratio of MBZ): 0.8
